Experimental data published in ChEMBL document CHEMBL2331495, “Novel pyrazole derivatives as neutral CB₁ antagonists with significant activity towards food intake” (Eur J Med Chem, 2013).

Sequences of proteins named here, by UniProt entry; tags and fusion partners are left off.
UniProt P47746, whole entry: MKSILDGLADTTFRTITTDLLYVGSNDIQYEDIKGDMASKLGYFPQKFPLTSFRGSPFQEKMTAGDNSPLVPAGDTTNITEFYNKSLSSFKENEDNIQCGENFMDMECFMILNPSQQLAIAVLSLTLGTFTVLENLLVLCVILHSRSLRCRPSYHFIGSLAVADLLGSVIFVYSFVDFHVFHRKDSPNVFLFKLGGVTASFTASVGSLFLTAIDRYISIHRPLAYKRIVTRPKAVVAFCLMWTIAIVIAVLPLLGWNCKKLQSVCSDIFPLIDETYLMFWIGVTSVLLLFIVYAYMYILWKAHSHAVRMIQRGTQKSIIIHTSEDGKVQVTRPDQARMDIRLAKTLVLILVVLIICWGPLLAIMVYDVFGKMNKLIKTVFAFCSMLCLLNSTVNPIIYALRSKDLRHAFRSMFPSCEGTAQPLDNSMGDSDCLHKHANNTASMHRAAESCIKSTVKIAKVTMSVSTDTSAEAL

Key:
Cannabinoid receptor 1 = Cannabinoid receptor 1 (Mus musculus, UniProt P47746); assay: Displacement of [3H]CP55940 from CB1 receptor in CD1 mouse brain membrane without cerebellum by liquid scintillation counting analysis; format: cell membranes
Mus musculus = organism: Mus musculus; assay: Selectivity ratio of Ki for CB1 receptor in CD1 mouse brain membrane without cerebellum to Ki for CB2 receptor in CD1 mouse spleen membrane; format: cell membranes

Ki (Cannabinoid receptor 1): 175 nM
Ratio Ki (Mus musculus): 0.042
Compound: Cc1c(C(O)CC2CCCCC2)nn(-c2ccc(Cl)cc2Cl)c1-c1ccc(Cl)cc1 (racemic)
